By UniProt entry, the sequences of proteins in these tests, tags left out. Residues count along the entry.
UniProt P28334, whole entry: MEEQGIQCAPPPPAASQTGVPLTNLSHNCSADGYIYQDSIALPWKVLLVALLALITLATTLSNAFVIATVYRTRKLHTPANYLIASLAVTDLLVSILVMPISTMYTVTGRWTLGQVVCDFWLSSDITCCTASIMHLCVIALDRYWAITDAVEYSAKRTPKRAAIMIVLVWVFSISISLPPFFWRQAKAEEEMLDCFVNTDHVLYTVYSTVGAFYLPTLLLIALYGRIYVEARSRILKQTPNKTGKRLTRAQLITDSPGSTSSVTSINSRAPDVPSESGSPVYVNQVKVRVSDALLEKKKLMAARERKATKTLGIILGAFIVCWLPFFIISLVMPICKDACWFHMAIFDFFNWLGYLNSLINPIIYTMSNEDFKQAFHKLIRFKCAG
UniProt P19327, whole entry: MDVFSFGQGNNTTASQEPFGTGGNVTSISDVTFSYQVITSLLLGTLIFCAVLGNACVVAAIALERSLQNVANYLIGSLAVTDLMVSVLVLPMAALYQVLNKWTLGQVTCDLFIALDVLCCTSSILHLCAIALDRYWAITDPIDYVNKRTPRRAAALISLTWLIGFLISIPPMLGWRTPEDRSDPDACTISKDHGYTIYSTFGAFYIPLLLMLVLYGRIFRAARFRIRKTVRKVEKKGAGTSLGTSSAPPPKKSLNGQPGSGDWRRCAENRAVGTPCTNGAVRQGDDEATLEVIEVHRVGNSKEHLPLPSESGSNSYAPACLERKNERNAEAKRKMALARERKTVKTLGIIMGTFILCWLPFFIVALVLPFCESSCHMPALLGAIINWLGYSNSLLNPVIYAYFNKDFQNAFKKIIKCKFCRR
UniProt P35563, 24-483: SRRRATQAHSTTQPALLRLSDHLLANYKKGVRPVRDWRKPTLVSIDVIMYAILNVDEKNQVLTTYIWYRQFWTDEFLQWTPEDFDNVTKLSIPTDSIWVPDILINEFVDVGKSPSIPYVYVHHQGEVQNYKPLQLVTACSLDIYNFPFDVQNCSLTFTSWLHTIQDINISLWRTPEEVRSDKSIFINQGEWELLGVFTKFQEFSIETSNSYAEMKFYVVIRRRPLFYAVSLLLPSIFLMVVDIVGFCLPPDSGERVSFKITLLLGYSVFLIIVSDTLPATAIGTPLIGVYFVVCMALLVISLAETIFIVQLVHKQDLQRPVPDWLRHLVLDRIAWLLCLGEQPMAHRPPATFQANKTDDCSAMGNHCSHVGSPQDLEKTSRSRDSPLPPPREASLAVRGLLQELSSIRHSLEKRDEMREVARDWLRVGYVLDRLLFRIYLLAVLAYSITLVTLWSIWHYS

According to patent US6713443B1, “Compounds which modify serotoninergic transmission, diagnostic and therapeutic applications” (Institut Pasteur, priority 1993, dated 2004):

What was measured:
[1] = test system: recapture of choline, GABA, histamine, dopamine and noradrenaline; experiment: Recapture of other neurotransmitters or their precursors; type: biochemical
mouse 5-HT1B receptor = biological target: T1, mouse 5-HT1B receptor (Mus musculus, UniProt P28334); experiment: [125I]cyanopindolol binding, membranes of NIH 3T3 cells transfected with the 5-HT1B receptor gene; settings: NIH 3T3 cells transfected with mouse 5-HT1B; read-out: maximum effect, inhibition of the specific binding of [125I]cyanopindolol
T1 construct: expressed in transfected cells; host or cells: NIH 3T3 cells
Protocol: The binding of [^125I]cyanopindolol was measured as described in HOYER D. et al., Eur. J. Pharmacol. 118, 1-12 (1985).
FIG. 1B represents the results obtained with membranes of NIH 3T3 cells transfected with the 5-HT1B receptor gene (50 μg of protein), incubated for 60 minutes at 37° C. in the presence of 0.3 nM [^125I]cyanopindolol. Binding was measured as for FIG. 1A.
The activity of the peptide was also evaluated on the binding to the 5-HT1B receptors in NIH 3T3 cells transfected with the mouse 5-HT1B receptor gene.

5-HT1A = biological target: T2, 5-HT1A (Rattus norvegicus, UniProt P19327); experiment: [3H]8-OH-DPAT binding, rat brain membranes
T2 construct: from tissue; host or cells: rat brain membranes

5-HT3 = biological target: T3, 5-HT3 (Rattus norvegicus, UniProt P35563); experiment: [3H]BRL 43694 binding, rat brain membranes; settings: 1 nM peptide; [3H]BRL 43694 (3 nM)
T3 construct: from tissue; host or cells: rat brain membranes

For `CC(C)C[C@H](NC(=O)[C@H](C)NC(=O)[C@H](CO)NC(=O)[C@@H](N)CC(C)C)C(=O)O` [LSAL, Leu-Ser-Ala-Leu], the “effect on the recapture of other neurotransmitters (or their precursors)” value [1] was “Neither did it show any effect”, the Emax (mouse 5-HT1B receptor) was 70% and the “INHIBITORY EFFECT AS % OF THE CONTROL” value (5-HT1A; 1 nM peptide, [3H]8-OH-DPAT (3 nM)) was 0 % of the control. The “effect on 5-HT1A receptors” value (5-HT1A; at a concentration which strongly antagonized the binding to 5-HT1B/1D) was “not affected” and the “INHIBITORY EFFECT AS % OF THE CONTROL” value (5-HT3) was 0 ± 10 % of the control.
